Patent US9108983B2, “Pyrrole compounds, a process for their preparation and pharmaceutical compositions containing them” (LES LABORATOIRES SERVIER, priority 2013, dated 2015)

Amino acid sequences for entries named in this document (tags omitted).
UniProt P10415, whole entry: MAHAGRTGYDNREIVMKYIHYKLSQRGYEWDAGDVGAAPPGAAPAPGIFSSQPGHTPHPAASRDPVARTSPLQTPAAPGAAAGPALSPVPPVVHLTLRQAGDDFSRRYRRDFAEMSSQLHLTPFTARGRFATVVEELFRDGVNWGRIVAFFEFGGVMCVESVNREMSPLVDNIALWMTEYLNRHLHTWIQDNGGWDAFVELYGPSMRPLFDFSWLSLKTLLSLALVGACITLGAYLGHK

Molecular target: Bcl-2 protein (histag-Bcl-2, UniProtKB P10415) (Homo sapiens (Human), UniProt P10415)
Assay: Inhibition of Bcl-2 by the fluorescence polarisation technique
Type: binding
Settings: incubation for 2 hours, read-out: IC50 (nM) Bcl-2 FP

IC50: 12.5 nM
Compound: Cc1c(C(=O)N(c2ccc(O)cc2)c2cnn(C)c2)cc(-c2cc(F)ccc2C(=O)N2Cc3ccccc3C[C@H]2CN2CCOCC2)n1C [Example 67, 5-(5-Fluoro-2-{[(3S)-3-(morpholin-4-ylmethyl)-3,4-dihydroisoquinolin-2(1H)-yl]carbonyl}phenyl)-N-(4-hydroxyphenyl)-1,2-dimethyl-N-(1-methyl-1H-pyrazol-4-yl)-1H-pyrrole-3-carboxamide hydrochloride]

Where a name gives a salt, the structure may show the parent alone.
